Values quoted from earlier work in US5081114A, “Steroids” (Roussel Uclaf, priority 1989, dated 1992).

Tested on: Aromatase
Settings: prior art; attacks enzymatic processes other than androgens to estrogens; cited from earlier work

CCC1(c2ccc(N)cc2)CCC(=O)NC1=O (racemic) [Aminogluthetimide]
specificity to Aromatase: not being specific to Aromatase
